Reference: ChEMBL document CHEMBL5614391, “GPX4 allosteric activators inhibit ferroptosis and exert myocardial protection in doxorubicin-induced myocardial injury mouse model” (Eur J Med Chem, 2024)
Active and inactive are the calls of the source. The rule behind the calls is not given here.

Assays:
HT-1080 [1] = experiment: Protection against erastin-induced ferroptosis in human HT-1080 cells assessed as reduction in lipid peroxides accumulation incubated for 2 hrs by C11-BODIPSY (581/591) probe based flow cytometry analysis; assay type: functional, cell-based
Mus musculus [2] = experiment: Protection against doxorubicin induced myocardial injury in mouse assessed as appearance of evenly arranged cells at 10 to 25 mg/kg, ip administered for 24 hrs followed by doxorubicin addition and measured after 96 hrs by H and E staining based assay; assay type: functional, organism-based; settings: dose 10-25 mg/kg, time 120.0 hrs
Mus musculus [3] = experiment: Protection against doxorubicin induced myocardial injury in mouse assessed as reduction in nuclear pyknosis at 10 to 25 mg/kg, ip administered for 24 hrs followed by doxorubicin addition and measured after 96 hrs by H and E staining based assay; assay type: functional, organism-based; settings: dose 10-25 mg/kg, time 120.0 hrs
Mus musculus [4] = experiment: Protection against doxorubicin induced myocardial injury in mouse assessed as reduction in vacuolar degeneration at 10 to 25 mg/kg, ip administered for 24 hrs followed by doxorubicin addition and measured after 96 hrs by H and E staining based assay; assay type: functional, organism-based; settings: dose 10-25 mg/kg, time 120.0 hrs
Mus musculus [5] = experiment: Protection against doxorubicin induced myocardial injury in mouse assessed as appearance of uniformly arranged myocardial cells at 10 to 25 mg/kg, ip administered for 24 hrs followed by doxorubicin addition and measured after 96 hrs by H and E staining based assay; assay type: functional, organism-based; settings: dose 10-25 mg/kg, time 120.0 hrs
Mus musculus [6] = experiment: Protection against doxorubicin induced myocardial injury in mouse assessed as appearance of uniform myocardial cell size at 10 to 25 mg/kg, ip administered for 24 hrs followed by doxorubicin addition and measured after 96 hrs by H and E staining based assay; assay type: functional, organism-based; settings: dose 10-25 mg/kg, time 120.0 hrs
Mus musculus [7] = experiment: Protection against doxorubicin induced myocardial injury in mouse assessed as appearance of neatly arranged myocardial cells at 10 to 25 mg/kg, ip administered for 24 hrs followed by doxorubicin addition and measured after 96 hrs by H and E staining based assay; assay type: functional, organism-based; settings: dose 10-25 mg/kg, time 120.0 hrs
Mus musculus [8] = experiment: Protection against doxorubicin induced myocardial injury in mouse assessed as appearance of tightly arranged myocardial cells at 10 to 25 mg/kg, ip administered for 24 hrs followed by doxorubicin addition and measured after 96 hrs by H and E staining based assay; assay type: functional, organism-based; settings: dose 10-25 mg/kg, time 120.0 hrs
Mus musculus [9] = experiment: Protection against doxorubicin induced myocardial injury in mouse assessed as appearance of myocardial cells with clear horizontal lines at 10 to 25 mg/kg, ip administered for 24 hrs followed by doxorubicin addition and measured after 96 hrs by H and E staining based assay; assay type: functional, organism-based; settings: dose 10-25 mg/kg, time 120.0 hrs
Mus musculus [10] = experiment: Protection against doxorubicin induced myocardial injury in mouse assessed as reduction in loss of myocardial cells at 10 to 25 mg/kg, ip administered for 24 hrs followed by doxorubicin addition and measured after 96 hrs by H and E staining based assay; assay type: functional, organism-based; settings: dose 10-25 mg/kg, time 120.0 hrs
Mus musculus [11] = experiment: Protection against doxorubicin induced myocardial injury in mouse assessed as appearance of rich and uniform cytoplasm at 10 to 25 mg/kg, ip administered for 24 hrs followed by doxorubicin addition and measured after 96 hrs by H and E staining based assay; assay type: functional, organism-based; settings: dose 10-25 mg/kg, time 120.0 hrs
Mus musculus [12] = experiment: Protection against doxorubicin induced myocardial injury in mouse assessed as appearance of normal interstitium at 10 to 25 mg/kg, ip administered for 24 hrs followed by doxorubicin addition and measured after 96 hrs by H and E staining based assay; assay type: functional, organism-based; settings: dose 10-25 mg/kg, time 120.0 hrs
Mus musculus [13] = experiment: Protection against doxorubicin induced myocardial injury in mouse assessed as appearance of neatly arranged myocardial fibers at 10 to 25 mg/kg, ip administered for 24 hrs followed by doxorubicin addition and measured after 96 hrs by H and E staining based assay; assay type: functional, organism-based; settings: dose 10-25 mg/kg, time 120.0 hrs
Mus musculus [14] = experiment: Protection against doxorubicin induced myocardial injury in mouse assessed as absence of myocardial fibrosis at 10 to 25 mg/kg, ip administered for 24 hrs followed by doxorubicin addition and measured after 96 hrs by H and E staining based assay; assay type: functional, organism-based; settings: dose 10-25 mg/kg, time 120.0 hrs
Mus musculus [15] = experiment: Protection against doxorubicin induced myocardial injury in mouse assessed as reduction in inflammatory cell infiltration at 10 to 25 mg/kg, ip administered for 24 hrs followed by doxorubicin addition and measured after 96 hrs by H and E staining based assay; assay type: functional, organism-based; settings: dose 10-25 mg/kg, time 120.0 hrs
Mus musculus [16] = experiment: Protection against doxorubicin induced myocardial injury in mouse assessed as reduction in nuclear lysis at 10 to 25 mg/kg, ip administered for 24 hrs followed by doxorubicin addition and measured after 96 hrs; assay type: functional, organism-based; settings: dose 10-25 mg/kg, time 120.0 hrs
Mus musculus [17] = experiment: Protection against doxorubicin induced myocardial injury in mouse assessed as reduction in serum MDA level at 10 to 25 mg/kg, ip administered for 24 hrs followed by doxorubicin addition and measured after 96 hrs; assay type: functional, organism-based; settings: dose 10-25 mg/kg, time 120.0 hrs
Mus musculus [18] = experiment: Protection against doxorubicin induced myocardial injury in mouse assessed as reduction in myocardial MDA level at 10 to 25 mg/kg, ip administered for 24 hrs followed by doxorubicin addition and measured after 96 hrs; assay type: functional, organism-based; settings: dose 10-25 mg/kg, time 120.0 hrs
Mus musculus [19] = experiment: Protection against doxorubicin induced myocardial injury in mouse assessed as reduction in myocardial AST level at 10 to 25 mg/kg, ip administered for 24 hrs followed by doxorubicin addition and measured after 96 hrs; assay type: functional, organism-based; settings: dose 10-25 mg/kg, time 120.0 hrs
HT-1080 [20] = experiment: Reversal of erastin induced cell death in human HT-1080 cells assessed as cell viability at 40 uM preincubated for 1 hr followed by erastin addition and measured after 24 hrs by CCK8 method; assay type: functional, cell-based; settings: time 25.0 hrs
HT-1080 [21] = experiment: Reversal of staurosporine induced cell death in human HT-1080 cells assessed as cell viability at 40 uM preincubated for 1 hr followed by staurosporine addition and measured after 24 hrs by CCK8 method; assay type: functional, cell-based; settings: time 25.0 hrs
HT-1080 [22] = experiment: Reversal of H2O2 induced cell death in human HT-1080 cells assessed as cell viability at 40 uM preincubated for 1 hr followed by H2O2 addition and measured after 24 hrs by CCK8 method; assay type: functional, cell-based; settings: time 25.0 hrs
HT-1080 [23] = experiment: Reversal of rapamycin induced cell death in human HT-1080 cells assessed as cell viability at 40 uM preincubated for 1 hr followed by rapamycin addition and measured after 24 hrs by CCK8 method; assay type: functional, cell-based; settings: time 25.0 hrs

What does the source list for `COc1ccc(NCc2cccn2-c2nnc(N3CCN(C)CC3)s2)c(OC)c1`?
Activity (HT-1080 [1]): Active; Activity (Mus musculus [2]): Active; Activity (Mus musculus [3]): Active; Activity (Mus musculus [4]): Active; Activity (Mus musculus [5]): Active; Activity (Mus musculus [6]): Active; Activity (Mus musculus [7]): Active; Activity (Mus musculus [8]): Active; Activity (Mus musculus [9]): Active; Activity (Mus musculus [10]): Active; Activity (Mus musculus [11]): Active; Activity (Mus musculus [12]): Active; Activity (Mus musculus [13]): Active; Activity (Mus musculus [14]): Active; Activity (Mus musculus [15]): Active; Activity (Mus musculus [16]): Active; Activity (Mus musculus [17]): Active; Activity (Mus musculus [18]): Active; Activity (Mus musculus [19]): Active

Which results are given for `COc1ccc(NCc2cccn2-c2nnc(N3CCN(C)CC3)s2)cc1OC`?
Activity (HT-1080 [1]): Active; Activity (HT-1080 [20]): Active; Activity (HT-1080 [21]): inactive; Activity (HT-1080 [22]): inactive; Activity (HT-1080 [23]): inactive
